Target: human histamine H3 receptor (Homo sapiens, UniProt Q9Y5N1)
Test: [3H]-N-methylhistamine binding
Settings: membranes of histamine H3 receptor-expressing SK-N-MC cells; 0.8 nM [3H]-N-methylhistamine; 45 min at 25° C.

By UniProt entry, the sequences of proteins in these tests, tags left out. Where a name states a change or a piece, a line headed by the entry shows the natural chain unless it says otherwise.
UniProt Q9Y5N1: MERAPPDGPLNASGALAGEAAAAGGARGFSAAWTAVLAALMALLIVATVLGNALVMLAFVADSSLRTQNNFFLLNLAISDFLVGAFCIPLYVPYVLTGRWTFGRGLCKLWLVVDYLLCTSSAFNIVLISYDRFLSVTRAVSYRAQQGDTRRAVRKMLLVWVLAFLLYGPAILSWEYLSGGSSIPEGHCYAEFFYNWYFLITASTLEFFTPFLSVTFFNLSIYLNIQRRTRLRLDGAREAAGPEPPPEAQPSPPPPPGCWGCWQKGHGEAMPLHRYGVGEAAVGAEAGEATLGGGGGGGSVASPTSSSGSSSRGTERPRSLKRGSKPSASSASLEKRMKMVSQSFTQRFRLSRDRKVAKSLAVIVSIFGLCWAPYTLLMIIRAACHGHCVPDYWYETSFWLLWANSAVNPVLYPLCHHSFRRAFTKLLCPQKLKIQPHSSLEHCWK

SMILES: O=c1[nH]c2ccccc2n1C1CCN(Cc2cccc(C#CCCN3CCCCC3)c2)CC1
- Ki: 1 nM

— patent US7446104B2, “Phenylalkynes” (Ortho-McNeil Pharmaceutical, Inc., priority 2001, dated 2008)
